The text below walks through data of patent US20090023780A1 (priority 2000, published 2009).

Test [1] relates to Sprague-Dawley rats. Briefly: Phase 2: ability of gacyclidine to counter the hyperalgia induced by naloxone administered during the analgesic effect of fentanyl (modified Randall-Selitto test). The following applies: for prevention of the naloxone-revealed lowering of nociceptive threshold (fentanyl activation of nociception facilitator system): then naloxone 1 mg/kg s.c.
Test [2] relates to Sprague-Dawley rats. As to the kind of experiment: Phase 3: potentiating effect of gacyclidine on the analgesic effect of fentanyl and fentanyl-induced prolonged allodynia (modified Randall-Selitto test). The conditions noted are these: 30 min before fentanyl 4x40 μg/kg i.v.

In the case of `C=CCN1CC[C@]23c4c5ccc(O)c4O[C@H]2C(=O)CC[C@@]3(O)[C@H]1C5`, in the test with Sprague-Dawley rats [1] (naloxone 1 mg/kg s.c., 10 min after last fentanyl injection (4x40 μg/kg i.v.), saline pre-treated rats), the “effect of naloxone on the nociceptive threshold during fentanyl analgesia” value is “considerable lowering of the nociceptive threshold, below the basic values”.
On to “1-[cis-2-methyl-1-(2-thienyl)cyclohexyl]piperidine”, for which the “potentiation of the analgesic effect of fentanyl” value with Sprague-Dawley rats [2] (gacyclidine 0.3 and 1 mg/kg i.v.) was “potentiates the analgesic effect of the fentanyl”. In addition, in the test with Sprague-Dawley rats [2] (gacyclidine at all the doses (0.1, 0.3 and 1 mg/kg i.v.)), the “prevention of prolonged allodynia after fentanyl” value is “prevents prolonged allodynia”. The “prevention of the naloxone-revealed lowering of nociceptive threshold (fentanyl activation of nociception facilitator system)” value in the test with Sprague-Dawley rats [1] (lowest dose of gacyclidine 0.1 mg/kg i.v., 30 min before fentanyl 4x40 μg/kg i.v.) is “completely prevents this effect”; with Sprague-Dawley rats [1] (pre-treatment with gacyclidine 30 min before fentanyl 4x40 μg/kg i.v.), “This activation is prevented”. Also, the “prevention of fentanyl-induced allodynia lasting several days” value in the test with Sprague-Dawley rats [1] (single injection 0.1 mg/kg, 30 minutes before the analgesic) is reported as “completely prevents this allodynia”.
